How the values were obtained:
[1] = test system: Shh-dependent pancreatic cancer cell line L3.6pl; conditions: inhibitor 10 μM, normalized to cell growth in carrier
Shh signaling = conditions: Shh-Light 2 cells; Taipale, et al. (2000); Zeng, et al. (2001); cited from earlier work

Question: With `CC1=C2C[C@H]3[C@@H](CC=C4C[C@@H](O)CC[C@@]43C)[C@@H]2CC[C@]12O[C@@H]1C[C@H](C)CN[C@H]1[C@H]2C` [Cyclopamine, reference compound] as the compound, how does the “Cell Growth (normalized)” value [1] read?
Answer: 0.7509

Question: And the “Effect on Shh-activated reporter activity (in words)” value (Shh signaling)?
Answer: antagonized
